# Test results from ChEMBL document CHEMBL5537184, “Discovery, Optimization, and Evaluation of Novel Pyridin-2(1H)-one Analogues as Potent TRK Inhibitors for Cancer Treatment” (J Med Chem, 2024).
# The chains behind the UniProt entries cited, without tags or fusion partners. Where a name states a change or a piece, a line headed by the entry shows the natural chain unless it says otherwise.
# UniProt P14635, whole entry, looked up: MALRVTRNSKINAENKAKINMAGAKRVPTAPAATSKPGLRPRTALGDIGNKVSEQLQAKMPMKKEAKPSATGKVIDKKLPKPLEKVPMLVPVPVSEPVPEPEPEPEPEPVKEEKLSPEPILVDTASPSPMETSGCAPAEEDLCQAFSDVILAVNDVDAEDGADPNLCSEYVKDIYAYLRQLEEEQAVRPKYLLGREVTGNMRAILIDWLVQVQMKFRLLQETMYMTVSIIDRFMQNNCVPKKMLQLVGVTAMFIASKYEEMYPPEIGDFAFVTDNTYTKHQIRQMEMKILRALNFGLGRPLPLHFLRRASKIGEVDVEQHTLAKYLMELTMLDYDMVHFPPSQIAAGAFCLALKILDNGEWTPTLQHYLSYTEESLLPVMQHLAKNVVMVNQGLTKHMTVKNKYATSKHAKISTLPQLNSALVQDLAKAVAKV
# UniProt P53667: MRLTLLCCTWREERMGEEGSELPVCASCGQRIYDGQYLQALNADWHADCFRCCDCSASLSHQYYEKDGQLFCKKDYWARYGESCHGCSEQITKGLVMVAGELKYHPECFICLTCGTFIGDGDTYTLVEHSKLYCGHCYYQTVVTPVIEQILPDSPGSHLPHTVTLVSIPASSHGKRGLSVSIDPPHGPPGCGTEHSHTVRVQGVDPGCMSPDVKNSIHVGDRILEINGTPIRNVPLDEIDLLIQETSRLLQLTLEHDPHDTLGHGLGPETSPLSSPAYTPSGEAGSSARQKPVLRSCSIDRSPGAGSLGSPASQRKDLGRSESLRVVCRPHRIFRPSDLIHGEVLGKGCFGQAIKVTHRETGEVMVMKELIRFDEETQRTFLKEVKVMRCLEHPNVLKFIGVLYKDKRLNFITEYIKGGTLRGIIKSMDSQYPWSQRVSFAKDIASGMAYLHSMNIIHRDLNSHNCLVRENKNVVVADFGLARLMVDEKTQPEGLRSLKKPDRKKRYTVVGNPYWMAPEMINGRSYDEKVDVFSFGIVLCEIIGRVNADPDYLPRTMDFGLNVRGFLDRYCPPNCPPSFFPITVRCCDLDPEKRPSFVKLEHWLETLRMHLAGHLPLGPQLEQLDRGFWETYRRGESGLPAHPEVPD
# UniProt P07949, whole entry: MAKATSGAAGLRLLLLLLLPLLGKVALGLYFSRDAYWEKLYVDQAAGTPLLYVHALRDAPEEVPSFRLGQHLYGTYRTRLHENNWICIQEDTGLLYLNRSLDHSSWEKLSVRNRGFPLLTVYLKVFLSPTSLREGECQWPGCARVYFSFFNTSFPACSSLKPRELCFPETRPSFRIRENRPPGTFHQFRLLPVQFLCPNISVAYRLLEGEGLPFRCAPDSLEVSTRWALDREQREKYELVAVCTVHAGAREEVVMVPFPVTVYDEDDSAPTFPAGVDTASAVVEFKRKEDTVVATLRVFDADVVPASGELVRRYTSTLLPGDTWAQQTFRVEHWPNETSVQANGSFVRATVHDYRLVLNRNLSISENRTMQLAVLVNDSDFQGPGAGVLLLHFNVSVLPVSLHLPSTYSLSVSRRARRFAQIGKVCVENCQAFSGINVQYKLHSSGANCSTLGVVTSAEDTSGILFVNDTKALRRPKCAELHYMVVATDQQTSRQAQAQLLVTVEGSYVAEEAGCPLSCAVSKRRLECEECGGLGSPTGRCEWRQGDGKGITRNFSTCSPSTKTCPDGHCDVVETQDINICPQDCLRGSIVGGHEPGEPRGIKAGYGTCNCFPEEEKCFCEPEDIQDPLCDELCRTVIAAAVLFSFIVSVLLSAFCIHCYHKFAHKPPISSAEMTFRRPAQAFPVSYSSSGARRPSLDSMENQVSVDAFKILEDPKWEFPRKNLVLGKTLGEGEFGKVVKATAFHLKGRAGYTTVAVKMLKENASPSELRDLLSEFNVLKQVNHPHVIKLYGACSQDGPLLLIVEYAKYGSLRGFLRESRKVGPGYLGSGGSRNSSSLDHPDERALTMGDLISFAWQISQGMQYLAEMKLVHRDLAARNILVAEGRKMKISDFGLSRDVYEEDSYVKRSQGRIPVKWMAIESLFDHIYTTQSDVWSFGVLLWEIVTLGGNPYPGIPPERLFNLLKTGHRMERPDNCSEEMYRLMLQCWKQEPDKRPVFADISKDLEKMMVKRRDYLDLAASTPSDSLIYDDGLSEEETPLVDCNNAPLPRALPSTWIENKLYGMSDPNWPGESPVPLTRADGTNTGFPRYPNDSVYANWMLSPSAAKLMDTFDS
# UniProt P08922: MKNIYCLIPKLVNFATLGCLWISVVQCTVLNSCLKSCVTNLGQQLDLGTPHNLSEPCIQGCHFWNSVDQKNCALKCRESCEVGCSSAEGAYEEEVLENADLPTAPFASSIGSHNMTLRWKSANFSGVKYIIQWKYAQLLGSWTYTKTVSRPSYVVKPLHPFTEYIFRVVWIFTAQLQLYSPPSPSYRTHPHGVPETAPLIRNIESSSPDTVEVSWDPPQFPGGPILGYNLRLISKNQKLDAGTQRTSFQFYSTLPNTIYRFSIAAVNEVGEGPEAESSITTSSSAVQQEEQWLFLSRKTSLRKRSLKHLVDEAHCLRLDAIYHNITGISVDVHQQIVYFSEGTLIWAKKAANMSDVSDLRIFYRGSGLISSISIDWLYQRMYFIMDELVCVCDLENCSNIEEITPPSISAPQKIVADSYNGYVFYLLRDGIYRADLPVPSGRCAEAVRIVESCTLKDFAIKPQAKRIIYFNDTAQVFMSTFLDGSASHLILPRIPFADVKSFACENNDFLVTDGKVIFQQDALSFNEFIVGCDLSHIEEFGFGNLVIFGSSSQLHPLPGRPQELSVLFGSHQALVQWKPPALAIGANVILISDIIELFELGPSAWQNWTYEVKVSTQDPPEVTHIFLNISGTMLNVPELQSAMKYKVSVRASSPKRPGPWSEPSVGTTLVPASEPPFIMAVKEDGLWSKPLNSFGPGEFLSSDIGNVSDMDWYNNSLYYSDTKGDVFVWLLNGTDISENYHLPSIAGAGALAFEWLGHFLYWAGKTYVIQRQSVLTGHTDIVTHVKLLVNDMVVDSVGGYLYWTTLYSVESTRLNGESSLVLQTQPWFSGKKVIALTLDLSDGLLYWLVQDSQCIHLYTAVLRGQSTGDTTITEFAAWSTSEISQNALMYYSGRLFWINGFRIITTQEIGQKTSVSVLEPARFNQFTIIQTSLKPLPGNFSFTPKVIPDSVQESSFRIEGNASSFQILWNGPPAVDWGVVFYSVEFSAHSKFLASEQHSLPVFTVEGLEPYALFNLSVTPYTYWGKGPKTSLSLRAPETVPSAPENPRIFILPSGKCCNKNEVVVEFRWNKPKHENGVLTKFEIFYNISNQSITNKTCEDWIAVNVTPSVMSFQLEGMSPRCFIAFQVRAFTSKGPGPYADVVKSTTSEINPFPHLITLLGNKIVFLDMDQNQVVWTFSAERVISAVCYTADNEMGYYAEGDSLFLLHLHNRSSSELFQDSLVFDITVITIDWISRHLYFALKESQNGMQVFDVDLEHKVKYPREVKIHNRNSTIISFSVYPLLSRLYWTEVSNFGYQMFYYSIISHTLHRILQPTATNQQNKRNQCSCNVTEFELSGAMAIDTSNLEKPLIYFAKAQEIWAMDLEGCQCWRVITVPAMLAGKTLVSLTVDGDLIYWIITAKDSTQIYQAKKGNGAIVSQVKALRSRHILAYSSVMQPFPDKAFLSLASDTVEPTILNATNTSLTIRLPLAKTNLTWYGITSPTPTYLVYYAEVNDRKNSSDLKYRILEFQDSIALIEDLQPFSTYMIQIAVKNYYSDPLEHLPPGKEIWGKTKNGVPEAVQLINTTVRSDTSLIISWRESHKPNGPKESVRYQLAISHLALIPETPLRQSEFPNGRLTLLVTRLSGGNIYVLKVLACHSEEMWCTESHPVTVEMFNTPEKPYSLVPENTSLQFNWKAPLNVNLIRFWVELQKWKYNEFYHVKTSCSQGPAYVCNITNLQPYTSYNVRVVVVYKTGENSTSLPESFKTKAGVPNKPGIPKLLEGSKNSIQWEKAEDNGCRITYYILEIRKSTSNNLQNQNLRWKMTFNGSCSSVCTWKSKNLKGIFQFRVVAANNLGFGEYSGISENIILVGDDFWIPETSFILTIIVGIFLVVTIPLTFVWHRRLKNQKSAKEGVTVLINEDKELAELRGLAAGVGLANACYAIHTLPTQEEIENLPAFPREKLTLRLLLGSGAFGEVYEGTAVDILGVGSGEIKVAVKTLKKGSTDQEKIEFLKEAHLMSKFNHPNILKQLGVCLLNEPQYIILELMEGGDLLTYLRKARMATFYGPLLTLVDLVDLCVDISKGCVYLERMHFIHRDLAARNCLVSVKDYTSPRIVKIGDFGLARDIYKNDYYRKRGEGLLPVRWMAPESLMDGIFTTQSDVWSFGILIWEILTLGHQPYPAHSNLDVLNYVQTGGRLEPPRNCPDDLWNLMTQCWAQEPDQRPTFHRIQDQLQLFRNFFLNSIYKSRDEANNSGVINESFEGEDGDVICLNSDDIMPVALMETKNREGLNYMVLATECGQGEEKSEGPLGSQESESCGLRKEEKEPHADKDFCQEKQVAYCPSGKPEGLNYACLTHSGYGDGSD
# UniProt P29597: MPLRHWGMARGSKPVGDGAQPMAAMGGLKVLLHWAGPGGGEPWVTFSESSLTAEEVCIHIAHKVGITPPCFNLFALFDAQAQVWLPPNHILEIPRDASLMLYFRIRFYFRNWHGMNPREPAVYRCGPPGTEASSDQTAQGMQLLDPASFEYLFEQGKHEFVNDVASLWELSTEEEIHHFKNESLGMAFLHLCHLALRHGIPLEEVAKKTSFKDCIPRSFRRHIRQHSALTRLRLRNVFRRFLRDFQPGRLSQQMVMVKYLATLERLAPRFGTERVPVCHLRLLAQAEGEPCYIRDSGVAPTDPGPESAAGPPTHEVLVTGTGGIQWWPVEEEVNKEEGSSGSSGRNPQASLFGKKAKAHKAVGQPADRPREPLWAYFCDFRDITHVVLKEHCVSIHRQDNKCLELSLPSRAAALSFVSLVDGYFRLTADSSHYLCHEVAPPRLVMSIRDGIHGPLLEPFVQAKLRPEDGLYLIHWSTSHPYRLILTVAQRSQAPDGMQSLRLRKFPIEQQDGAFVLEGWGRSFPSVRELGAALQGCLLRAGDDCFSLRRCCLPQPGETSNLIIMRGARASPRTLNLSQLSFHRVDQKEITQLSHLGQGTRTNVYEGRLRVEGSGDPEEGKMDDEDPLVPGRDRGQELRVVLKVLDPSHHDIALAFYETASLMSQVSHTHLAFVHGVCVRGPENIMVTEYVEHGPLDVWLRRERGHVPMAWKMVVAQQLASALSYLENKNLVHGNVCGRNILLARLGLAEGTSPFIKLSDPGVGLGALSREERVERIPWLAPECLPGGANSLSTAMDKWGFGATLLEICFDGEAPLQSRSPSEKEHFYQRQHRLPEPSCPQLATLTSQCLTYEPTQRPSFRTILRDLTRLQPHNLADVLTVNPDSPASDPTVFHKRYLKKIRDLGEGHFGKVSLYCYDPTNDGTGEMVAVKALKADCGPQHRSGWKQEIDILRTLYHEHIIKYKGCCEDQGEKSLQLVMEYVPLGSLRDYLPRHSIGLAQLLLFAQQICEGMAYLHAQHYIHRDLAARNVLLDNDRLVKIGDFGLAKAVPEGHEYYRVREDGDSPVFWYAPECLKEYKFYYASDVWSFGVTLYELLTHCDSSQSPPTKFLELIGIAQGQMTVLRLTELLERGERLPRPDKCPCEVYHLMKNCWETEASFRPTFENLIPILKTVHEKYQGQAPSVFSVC
# UniProt P30291: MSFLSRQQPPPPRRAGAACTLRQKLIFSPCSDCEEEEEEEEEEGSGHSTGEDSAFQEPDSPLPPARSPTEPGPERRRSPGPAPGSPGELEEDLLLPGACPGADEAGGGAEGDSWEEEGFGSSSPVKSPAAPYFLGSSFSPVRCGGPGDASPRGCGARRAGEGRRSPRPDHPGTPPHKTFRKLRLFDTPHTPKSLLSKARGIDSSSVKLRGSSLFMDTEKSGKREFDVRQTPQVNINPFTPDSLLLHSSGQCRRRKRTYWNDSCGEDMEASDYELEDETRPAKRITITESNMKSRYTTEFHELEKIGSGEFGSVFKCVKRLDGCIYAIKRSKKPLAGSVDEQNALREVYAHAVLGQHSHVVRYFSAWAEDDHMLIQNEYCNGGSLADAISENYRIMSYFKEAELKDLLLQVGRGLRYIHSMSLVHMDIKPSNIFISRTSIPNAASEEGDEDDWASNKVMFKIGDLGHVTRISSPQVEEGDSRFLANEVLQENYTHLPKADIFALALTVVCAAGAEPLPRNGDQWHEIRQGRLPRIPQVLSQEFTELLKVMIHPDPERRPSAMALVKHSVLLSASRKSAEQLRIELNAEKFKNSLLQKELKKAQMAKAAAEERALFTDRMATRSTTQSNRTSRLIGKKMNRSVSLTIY
# Legend:
# [1] = test system: Tyrosine-protein kinase ABL1 (Homo sapiens), P00519 [H396P]; test: Inhibition of human full length Abl (ABL1) H396P mutant expressed in 293H cells assessed as remaining activity at 0.1 uM by NanoBRET assay relative to control; type: cell-based; conditions: HEK293-H
# [2] = biological target: ALK tyrosine kinase receptor (Homo sapiens) (UniProt Q9UM73); test: Inhibition of human recombinant ALK using KKKSPGEYVNIEF as substrate assessed as remaining activity in presence of [33P]-ATP measured at 0.1 uM after 40 mins by radiometric scintillation counting analysis relative to control
# [3] = biological target: Aurora kinase A (Homo sapiens) (UniProt O14965); test: Inhibition of human Aurora-A assessed as remaining activity at 0.1 uM by Eurofins kinase assay relative to control
# [4] = biological target: Serine/threonine-protein kinase B-raf (Homo sapiens) (UniProt P15056); test: Inhibition of human B-Raf assessed as remaining activity at 0.1 uM by Eurofins kinase assay relative to control
# [5] = biological target: Cyclin-dependent kinase 1/cyclin B1 (Homo sapiens) (UniProt P06493+P14635); test: Inhibition of human CDK1/cyclinB assessed as remaining activity at 0.1 uM by Eurofins kinase assay relative to control; type: protein-complex assay
# [6] = biological target: Serine/threonine-protein kinase Chk2 (Homo sapiens) (UniProt O96017); test: Inhibition of human CHK2 assessed as remaining activity at 0.1 uM by Eurofins kinase assay relative to control
# [7] = biological target: Epidermal growth factor receptor (Homo sapiens) (UniProt P00533); test: Inhibition of human EGFR assessed as remaining activity at 0.1 uM by Eurofins kinase assay relative to control
# [8] = biological target: Fibroblast growth factor receptor 1 (Homo sapiens) (UniProt P11362); test: Inhibition of human FGFR1 assessed as remaining activity at 0.1 uM by Eurofins kinase assay relative to control
# [9] = biological target: Vascular endothelial growth factor receptor 1 (Homo sapiens) (UniProt P17948); test: Inhibition of human Flt1 assessed as remaining activity at 0.1 uM by Eurofins kinase assay relative to control
# [10] = biological target: Glycogen synthase kinase-3 alpha (Homo sapiens) (UniProt P49840); test: Inhibition of human GSK3a assessed as remaining activity at 0.1 uM by Eurofins kinase assay relative to control
# [11] = biological target: LIM domain kinase 1 (Homo sapiens) (UniProt P53667); test: Inhibition of human LIMK1 assessed as remaining activity at 0.1 uM by Eurofins kinase assay relative to control
# [12] = biological target: Dual specificity mitogen-activated protein kinase kinase 1 (Homo sapiens) (UniProt Q02750); test: Inhibition of human MEK1 assessed as remaining activity at 0.1 uM by Eurofins kinase assay relative to control
# [13] = biological target: Hepatocyte growth factor receptor (Homo sapiens) (UniProt P08581); test: Inhibition of human Met assessed as remaining activity at 0.1 uM by Eurofins kinase assay relative to control
# [14] = biological target: Serine/threonine-protein kinase mTOR (Homo sapiens) (UniProt P42345); test: Inhibition of human mTOR assessed as remaining activity at 0.1 uM by Eurofins kinase assay relative to control
# [15] = biological target: Serine/threonine-protein kinase Nek1 (Homo sapiens) (UniProt Q96PY6); test: Inhibition of human NEK1 assessed as remaining activity at 0.1 uM by Eurofins kinase assay relative to control
# [16] = biological target: Serine/threonine-protein kinase pim-1 (Homo sapiens) (UniProt P11309); test: Inhibition of human Pim-1 assessed as remaining activity at 0.1 uM by Eurofins kinase assay relative to control
# [17] = biological target: Serine/threonine-protein kinase PLK1 (Homo sapiens) (UniProt P53350); test: Inhibition of human Plk1 assessed as remaining activity at 0.1 uM by Eurofins kinase assay relative to control
# [18] = biological target: Proto-oncogene tyrosine-protein kinase receptor Ret (Homo sapiens) (UniProt P07949); test: Inhibition of human Ret assessed as remaining activity at 0.1 uM by Eurofins kinase assay relative to control
# [19] = biological target: Receptor-interacting serine/threonine-protein kinase 1 (Homo sapiens) (UniProt Q13546); test: Inhibition of human RIPK1 assessed as remaining activity at 0.1 uM by Eurofins kinase assay relative to control
# [20] = biological target: Receptor-interacting serine/threonine-protein kinase 2 (Homo sapiens) (UniProt O43353); test: Inhibition of human RIPK2 assessed as remaining activity at 0.1 uM by Eurofins kinase assay relative to control
# [21] = biological target: Macrophage-stimulating protein receptor (Homo sapiens) (UniProt Q04912); test: Inhibition of human Ron assessed as remaining activity at 0.1 uM by Eurofins kinase assay relative to control
# [22] = biological target: Proto-oncogene tyrosine-protein kinase ROS (Homo sapiens) (UniProt P08922); test: Inhibition of human Ros assessed as remaining activity at 0.1 uM by Eurofins kinase assay relative to control
# [23] = biological target: Proto-oncogene tyrosine-protein kinase Src (Homo sapiens) (UniProt P12931); test: Inhibition of human Src (1-530) assessed as remaining activity at 0.1 uM by Eurofins kinase assay relative to control
# [24] = biological target: Serine/threonine-protein kinase 25 (Homo sapiens) (UniProt O00506); test: Inhibition of human STK25 assessed as remaining activity at 0.1 uM by Eurofins kinase assay relative to control
# [25] = biological target: Tyrosine-protein kinase SYK (Homo sapiens) (UniProt P43405); test: Inhibition of human Syk assessed as remaining activity at 0.1 uM by Eurofins kinase assay relative to control
# [26] = biological target: Serine/threonine-protein kinase TBK1 (Homo sapiens) (UniProt Q9UHD2); test: Inhibition of human TBK1 assessed as remaining activity at 0.1 uM by Eurofins kinase assay relative to control
# [27] = biological target: Angiopoietin-1 receptor (Homo sapiens) (UniProt Q02763); test: Inhibition of human Tie2 assessed as remaining activity at 0.1 uM by Eurofins kinase assay relative to control
# [28] = biological target: Non-receptor tyrosine-protein kinase TYK2 (Homo sapiens) (UniProt P29597); test: Inhibition of human TYK2 assessed as remaining activity at 0.1 uM by Eurofins kinase assay relative to control
# [29] = biological target: Wee1-like protein kinase (Homo sapiens) (UniProt P30291); test: Inhibition of human Wee1 assessed as remaining activity at 0.1 uM by Eurofins kinase assay relative to control
# [30] = biological target: Mitogen-activated protein kinase kinase kinase 20 (Homo sapiens) (UniProt Q9NYL2); test: Inhibition of human ZAK assessed as remaining activity at 0.1 uM by Eurofins kinase assay relative to control
# [31] = test system: Tyrosine-protein kinase ABL1 (Homo sapiens), P00519 [H396P]; test: Inhibition of human full length Abl (ABL1) H396P mutant expressed in 293H cells assessed as remaining activity at 1 uM by NanoBRET assay relative to control; type: cell-based; conditions: HEK293-H
structure (smiles),measurement,setting,value
C[C@@H](Nc1c[nH]c(=O)c(C(=O)Nc2ccc(CN3CCN(C)CC3)cc2)c1)c1c(Cl)ccc(F)c1Cl,Activity,[1],103%
same,Activity,[2],84%
same,Activity,[3],89%
same,Activity,[4],93%
same,Activity,[5],96%
same,Activity,[6],105%
same,Activity,[7],110%
same,Activity,[8],122%
same,Activity,[9],96%
same,Activity,[10],109%
same,Activity,[11],83%
same,Activity,[12],91%
same,Activity,[13],114%
same,Activity,[14],85%
same,Activity,[15],113%
same,Activity,[16],107%
same,Activity,[17],111%
same,Activity,[18],95%
same,Activity,[19],114%
same,Activity,[20],97%
same,Activity,[21],100%
same,Activity,[22],107%
same,Activity,[23],79%
same,Activity,[24],103%
same,Activity,[25],114%
same,Activity,[26],92%
same,Activity,[27],120%
same,Activity,[28],102%
same,Activity,[29],96%
same,Activity,[30],96%
same,Activity,[31],92%
